Test results from publication PMC12241124 (Frontiers in Microbiology, 2025).
≈ marks a conversion by molar mass, not a printed value.

Legend:
[1] = system: Mycobacterium bovis BCG
[2] = system: methicillin-susceptible S. aureus clinical isolates; type: cell-based, Staphylococcus aureus
[3] = system: M. abscessus clinical isolates; type: cell-based, Mycobacterium abscessus
[4] = system: methicillin-resistant S. aureus (MRSA) clinical isolates; type: cell-based, Staphylococcus aureus
[5] = system: BCG in primary human macrophages; type: cell-based, Mycobacterium bovis
[6] = pH 5.5, ref Boge et al., 2018; cited from earlier work
From the text: The peptide NZ2114 ([…]) was manufactured by solid phase peptide synthesis, followed by cyclisation of three natural occurring di-sulphide bonds and purification by sequential chromatography steps (PolyPeptide Laboratories AB, Limhamn, Sweden). The purity (>97%) of the peptide was confirmed by high-performance liquid chromatography. The peptide has a molecular weight of 4,411 Da and net charge +4.6 at pH 5.5 ([Boge et al., 2018]).

With CC[C@H](C)[C@@H]1NC(=O)[C@H](CO)NC(=O)[C@H](CCCCN)NC(=O)[C@@H]2CSSC[C@@H](C(=O)N[C@@H](Cc3ccc(O)cc3)C(=O)O)NC(=O)[C@H](CCCCN)NC(=O)[C@@H]3CSSC[C@H](NC(=O)[C@H](CCCNC(=N)N)NC(=O)[C@H](CC(C)C)NC(=O)[C@H](CC(=O)O)NC(=O)[C@H](CC(=O)O)NC(=O)[C@H](CCC(=O)O)NC(=O)[C@H](CC(N)=O)NC(=O)[C@H](Cc4c[nH]c5ccccc45)NC(=O)[C@@H]4CCCN4C(=O)CNC(=O)[C@H](CC(N)=O)NC(=O)[C@@H](NC(=O)CNC(=O)[C@H](Cc4ccccc4)NC(=O)CN)CSSC[C@H](NC(=O)[C@H](Cc4ccc(O)cc4)NC(=O)CNC(=O)CNC(=O)[C@H](CCCCN)NC(=O)[C@H](Cc4ccc(O)cc4)NC(=O)CNC(=O)[C@H](CCCCN)NC1=O)C(=O)N[C@@H](C)C(=O)N[C@@H](CCCCN)C(=O)NCC(=O)NCC(=O)N[C@@H](Cc1ccccc1)C(=O)N[C@@H](C(C)C)C(=O)N3)C(=O)N[C@@H](Cc1c[nH]cn1)C(=O)N[C@@H](CC(N)=O)C(=O)N[C@@H](Cc1c[nH]cn1)C(=O)N2 [NZ2114] the MIC90 [1] was 6.1 µM (≈ 26.9 µg/mL), the MIC99 [2] was 0.3 µM (≈ 1.32 µg/mL) and the “MIC99 (mean)” value [3] was 75 µM (≈ 331 µg/mL). The MIC99 [4] was 0.3 µM (≈ 1.32 µg/mL), the “maximum reduction in intracellular bacterial load” value [5] was 89% and the net charge [6] was “+4.6”.
